Earlier results as cited in PMC9954444, “SERPIN-Derived Small Peptide (SP16) as a Potential Therapeutic Agent against HIV-Induced Inflammatory Molecules and Viral Replication in Cells of the Central Nervous System” (Cells, 2023).

Settings: mouse model, following SP16 treatment; cited from earlier work
From the text: Our findings correlate with the anti-inflammatory effects of SP16 as previously published by Toldo et al..

## CCCC[C@H](NC(=O)[C@H](CC(C)C)NC(=O)[C@H](Cc1ccccc1)NC(=O)[C@@H](NC(=O)[C@H](Cc1ccccc1)NC(=O)[C@@H]1CCCN1C(=O)[C@H](CCCCN)NC(=O)[C@H](CC(N)=O)NC(=O)[C@H](Cc1ccccc1)NC(=O)[C@H](CCCCN)NC(=O)[C@@H](NC(C)=O)C(C)C)C(C)C)C(=O)N[C@H](C(=O)N[C@@H](CCC(=O)O)C(=O)N[C@@H](CCC(N)=O)C(=O)N[C@@H](CC(N)=O)C(=O)N[C@H](C(=O)N[C@@H](CCCCN)C(N)=O)[C@@H](C)O)[C@@H](C)CC [SP16]
  inflammation after acute myocardial infarction: decrease in inflammation
